In patent publication US6458834B2, “Pentacyclic triterpenes” (Micro Flo Company, priority 1998, dated 2002):

Target: T1, human leucocyte elastase (Homo sapiens, UniProt P08246)
T1 construct: purchased Elastin Products
T1 sequence (P08246 30-267): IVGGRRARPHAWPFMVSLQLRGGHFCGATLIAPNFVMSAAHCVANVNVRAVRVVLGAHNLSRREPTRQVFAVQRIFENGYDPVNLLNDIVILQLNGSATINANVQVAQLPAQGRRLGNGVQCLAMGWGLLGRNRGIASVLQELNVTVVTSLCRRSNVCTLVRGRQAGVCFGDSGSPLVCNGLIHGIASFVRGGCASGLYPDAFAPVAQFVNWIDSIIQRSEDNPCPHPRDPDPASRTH
Assay: Human leucocyte elastase (HLE) inhibition, MeO-Suc-Ala-Ala-Pro-Val-pNA substrate
Format: biochemical
Details: 0.1 M Tris, 0.5 M NaCl, 3% DMSO, pH 7.5; 15 min preincubation at room temperature
Protocol: Stock solutions were mixed to yield a reaction mixture consisting of 0.5 mM MeO-Suc-Ala-Ala-Pro-Val-pNA (Sigma) and […] human leucocyte elastase (Elastin Products) in 0.1 M Tris, 0.5 M NaCl and 3% DMSO (v/v) at a pH of 7.5. Test compounds were solubilized in DMSO. Equal volumes of enzyme and inhibitor were mixed and allowed to incubate for 15 minutes at room temperature. The reaction was started by the addition of a third equal volume containing substrate. Reactions were carried out in microliter plates.

Row | Compound | IC50 [µM]
1 | C[C@H]1[C@H](C)CC[C@]2(C)CC[C@]3(C)C(=CC[C@@H]4[C@@]5(C)CC[C@H](O)C(C)(C)[C@@H]5CC[C@]43C)[C@H]12 [Example 19, α-Amyrin] | 21.1
2 | Echinocystic acid [Example 22] | 21.1
